Measured values from PMC12785511, “Integrative Profiling for BBB Permeability Using Capillary Electrochromatography, Experimental Physicochemical Parameters, and Ensemble Machine Learning” (International Journal of Molecular Sciences, 2025).

Assays:
[1] = Sirius T3 automated potentiometric titrations with n-octanol, log P / log D; settings: for Log D7.4: pH 7.4
[2] = experimental in vivo measurements from rats, data retrieved from literature; cited from earlier work
[3] = open-tubular capillary electrochromatography (CEC), permeability k′ parameter; assay type: in vitro ADME; settings: pH 7.4 HEPES buffer 40 mM, migration times in coated and uncoated capillary, mean ± SD of three independent experiments

Substance	Log P ± SD [1]	Log D7.4 [1]	Log BB [2]	k′ ± SD (CEC) [3]
pindolol	1.91 ± 0.01	−0.28		
nicotine	1.31 ± 0.01	0.54	0.40	0.00897 ± 0.00167
clonidine	1.53 ± 0.01	0.74		
